# Calls of active or inactive are those of the source. The rule behind the calls is not given here.
# Legend:
# [1] = system: Salmonella typhimurium; assay: Bactericidal activity against Salmonella enterica serovar typhimurium SL1344 incubated for 90 mins by serial dilution assay; format: functional, Salmonella enterica subsp. enterica serovar Typhimurium; conditions: SL1344, 1.5 h
# [2] = system: Staphylococcus aureus; assay: Bactericidal activity against Staphylococcus aureus ATCC 29213 incubated for 90 mins by serial dilution assay; format: functional; conditions: ATCC 29213, 1.5 h
# [3] = system: Escherichia coli; assay: Induction of morphological changes in Escherichia coli ATCC 25922 assessed as leakage in intracellular contents at 0.5 times MIC incubated for 90 mins by Helium ion microscopy; format: functional, organism-based
# [4] = system: Cell membrane; assay: Induction of outer membrane permeabilization in Escherichia coli ATCC 25922 assessed as increase in NPN fluorescence intensity incubated for 15 mins by NPN-dye based fluorescence analysis; format: subcellular
# [5] = system: Lipid bilayer; assay: Induction of membrane disruption in Gram-positive bacterial cell membrane mimic POPG:Cardiolipin (9:1) large unilamellar vesicle assessed as carboxyfluorescein leakage by fluorescence analysis
# [6] = system: Enterococcus faecalis; assay: Antibacterial activity against Enterococcus faecalis ATCC 29212 assessed as inhibition of bacterial growth incubated for 90 mins by serial dilution assay; format: functional; conditions: ATCC 29212, 1.5 h
# [7] = system: Escherichia coli; assay: Antibacterial activity against Escherichia coli ATCC 25922 assessed as inhibition of bacterial growth incubated for 90 mins by serial dilution assay; format: functional; conditions: ATCC 25922, 1.5 h
# [8] = system: Escherichia coli; assay: Induction of morphological changes in Escherichia coli ATCC 25922 assessed as formation of vesicular bodies at 2 times MIC incubated for 90 mins by Helium ion microscopy; format: functional, organism-based
# [9] = system: Cell membrane; assay: Induction of outer membrane permeabilization in Escherichia coli BAA3051 assessed as increase in NPN fluorescence intensity incubated for 15 mins by NPN-dye based fluorescence analysis
# [10] = system: Cell membrane; assay: Induction of membrane depolarization in Enterococcus faecalis ATCC 29212 at 0.25 times MIC after 60 mins by DiOC23 dye based based flow cytometry; format: subcellular
# [11] = system: Cell membrane; assay: Induction of membrane depolarization in Salmonella enterica serovar typhimurium SL1344 at 0.25 to 0.5 times MIC after 60 mins by DiOC23 dye based based flow cytometry; format: subcellular; conditions: Salmonella enterica subsp. enterica serovar Typhimurium
# [12] = system: Escherichia coli; assay: Bactericidal activity against Escherichia coli ATCC 25922 incubated for 90 mins by serial dilution assay; format: functional; conditions: ATCC 25922, 1.5 h
# [13] = system: Cell membrane; assay: Induction of outer membrane permeabilization in Salmonella enterica serovar typhimurium SL1344 assessed as increase in NPN fluorescence intensity incubated for 15 mins by NPN-dye based fluorescence analysis; format: subcellular; conditions: Salmonella enterica subsp. enterica serovar Typhimurium
# [14] = system: Salmonella typhimurium; assay: Antibacterial activity against Salmonella enterica serovar typhimurium SL1344 assessed as inhibition of bacterial growth incubated for 90 mins by serial dilution assay; format: functional, Salmonella enterica subsp. enterica serovar Typhimurium; conditions: SL1344, 1.5 h
# [15] = system: Cell membrane; assay: Induction of membrane depolarization in Staphylococcus aureus ATCC 29213 at 0.25 times MIC after 60 mins by DiOC23 dye based based flow cytometry; format: subcellular
# [16] = system: Escherichia coli; assay: Bactericidal activity against Escherichia coli BAA3051 incubated for 90 mins by serial dilution assay; format: functional; conditions: BAA3051, 1.5 h
# [17] = system: Cell membrane; assay: Induction of inner membrane damage in Escherichia coli ATCC 25922 assessed disruption of membrane integrity at 0.5 to 256 ug/ml and measured after 90 mins by propidium iodide staining based flow cytometry; format: subcellular; conditions: dose 0.5-256 µg/ml
# [18] = system: Cell membrane; assay: Induction of membrane depolarization in Salmonella enterica serovar typhimurium SL1344 at 0.5 times MIC after 60 mins by DiOC23 dye based based flow cytometry relative to control; conditions: Salmonella enterica subsp. enterica serovar Typhimurium
# [19] = system: Cell membrane; assay: Induction of membrane depolarization in Escherichia coli ATCC 25922 at 0.25 to 0.5 times MIC after 60 mins by DiOC23 dye based based flow cytometry; format: subcellular
# [20] = system: Enterococcus faecalis; assay: Bactericidal activity against Enterococcus faecalis ATCC 29212 incubated for 90 mins by serial dilution assay; format: functional; conditions: ATCC 29212, 1.5 h
# [21] = system: Staphylococcus aureus; assay: Antibacterial activity against Staphylococcus aureus ATCC 29213 assessed as inhibition of bacterial growth incubated for 90 mins by serial dilution assay; format: functional; conditions: ATCC 29213, 1.5 h
# [22] = system: Cell membrane; assay: Induction of membrane depolarization in Enterococcus faecalis ATCC 29212 at 0.5 times MIC after 60 mins by DiOC23 dye based based flow cytometry relative to control
# [23] = system: Staphylococcus aureus; assay: Antibacterial activity against Methicillin resistant Staphylococcus aureus ATCC 33591 assessed as inhibition of bacterial growth incubated for 90 mins by serial dilution assay; format: functional; conditions: ATCC 33591, 1.5 h
# [24] = system: Escherichia coli; assay: Induction of morphological changes in Escherichia coli ATCC 25922 at 0.5 times MIC incubated for 90 mins by Helium ion microscopy; format: functional, organism-based
# [25] = system: Staphylococcus aureus; assay: Induction of morphological changes in Staphylococcus aureus ATCC 29213 assessed as intracellular content leakage by measuring cell structural component degeneration at 0.5 to 2 times MIC incubated for 90 mins by Helium ion microscopy; format: functional, organism-based
# [26] = system: Escherichia coli; assay: Induction of morphological changes in Escherichia coli ATCC 25922 assessed as formation of vesicular bodies at 2 times MBC incubated for 90 mins by Helium ion microscopy; format: functional, organism-based
# [27] = system: Staphylococcus aureus; assay: Bactericidal activity against Methicillin resistant Staphylococcus aureus ATCC 33591 incubated for 90 mins by serial dilution assay; format: functional; conditions: ATCC 33591, 1.5 h
# [28] = system: Cell membrane; assay: Induction of inner membrane damage in Staphylococcus aureus ATCC 29213 assessed disruption of membrane integrity at 0.5 to 256 ug/ml and measured after 90 mins by propidium iodide staining based flow cytometry; format: subcellular; conditions: dose 0.5-256 µg/ml
# [29] = system: Staphylococcus aureus; assay: Induction of morphological changes in Staphylococcus aureus ATCC 29213 assessed as intracellular content leakage by measuring membrane degradation at 0.5 to 2 times MIC incubated for 90 mins by Helium ion microscopy; format: functional, organism-based
# [30] = system: Escherichia coli; assay: Antibacterial activity against Escherichia coli BAA3051 assessed as inhibition of bacterial growth incubated for 90 mins by serial dilution assay; format: functional; conditions: BAA3051, 1.5 h
# [31] = system: Cell membrane; assay: Induction of membrane depolarization in Staphylococcus aureus ATCC 29213 at 0.5 times MIC after 60 mins by DiOC23 dye based based flow cytometry relative to control; format: subcellular
# [32] = system: Cell membrane; assay: Induction of membrane depolarization in Escherichia coli ATCC 25922 at 0.5 times MIC after 60 mins by DiOC23 dye based based flow cytometry relative to control
smiles,measurement,setting,value
CC[C@H](C)[C@H](NC(=O)[C@H](CCCCN)NC(=O)[C@@H]1CCCN1C(=O)[C@@H](NC(=O)[C@H](CC(C)C)NC(=O)[C@H](C)NC(=O)[C@H](Cc1ccccc1)NC(=O)[C@H](Cc1ccccc1)NC(=O)CN)[C@@H](C)CC)C(=O)N[C@H](C(=O)N[C@@H](CO)C(=O)N[C@@H](CO)C(=O)N1CCC[C@H]1C(=O)N[C@@H](CC(C)C)C(=O)N[C@@H](Cc1ccccc1)C(=O)N[C@@H](CCCCN)C(=O)N[C@H](C(=O)N[C@@H](CC(C)C)C(=O)N[C@@H](CC(C)C)C(=O)N[C@@H](CO)C(=O)N[C@@H](C)C(=O)N[C@H](C(=O)O)C(C)C)[C@H](C)O)[C@@H](C)CC,MBC,[1],125 µg/mL
same,MBC,[2],15.6 µg/mL
same,Activity,[3],Active
same,Activity,[4],Active
same,Activity,[5],Active
same,MIC,[6],7.8 µg/mL
same,MIC,[7],31.3 µg/mL
same,Activity,[8],Active
same,Activity,[9],Active
same,Activity,[10],Active
same,Activity,[11],30%
same,MBC,[12],31.3 µg/mL
same,Activity,[13],Active
same,MIC,[14],125 µg/mL
same,Activity,[15],Active
same,MBC,[16],31.3 µg/mL
same,Activity,[17],Active
same,Activity,[18],40%
same,Activity,[19],30%
same,MBC,[20],7.8 µg/mL
same,MIC,[21],7.8 µg/mL
same,Activity,[22],40%
same,MIC,[23],7.8 µg/mL
same,Activity,[24],Active
same,Activity,[25],Active
same,Activity,[26],Active
same,MBC,[27],15.6 µg/mL
same,Activity,[28],Active
same,Activity,[29],Active
same,MIC,[30],31.3 µg/mL
same,Activity,[31],40%
same,Activity,[32],40%
